Molecules are shown by their SMILES.

We go through one molecule from patent publication US20240025949A1, “Beta-Arrestin Effectors and Compositions and Methods of Use Thereof” (Trevena, Inc., priority 2021, published 2024).

Experiment [1] concerns the target T1, human AT1R (Homo sapiens, UniProt P30556).
T1 construct: ProLink (β-galactosidase enzyme-donor fragment, from the pCMV-ProLink vector)
In words: PathHunter β-arrestin-2 recruitment assay, human AT1R. Format: cell-based. The conditions noted are these: PathHunter β-arrestin HEK293 cells, inactive = EC50 greater than 10 uM.

The target in experiment [2] is T1, human AT1R. In words: IP1 accumulation assay (IP-One Tb), human AT1R. The format is cell-based. The conditions noted are these: cells expressing human AT1R, inactive = EC50 greater than 10 uM.

In the case of `CCCCC(=O)N(Cc1ccc(-c2ccccc2-c2nnn[nH]2)cc1)[C@H](C(=O)O)C(C)C` [Valsartan, reference compound], the “human AT1R b-arrestin2 EC50 (M)” value at human AT1R [1] was “inactive”. Moreover, the “human AT1R IP One EC50 (M)” value at human AT1R [2] was “inactive”.
